These results are taken from patent US20240383980A1 (VITRUVIAE, published 2024).

The target in this assay is T1, recombinant human CD25 (human, UniProt P01589 22-213, limits assumed).
T1 construct: also called IL-2 receptor subunit a
T1 sequence (looked up): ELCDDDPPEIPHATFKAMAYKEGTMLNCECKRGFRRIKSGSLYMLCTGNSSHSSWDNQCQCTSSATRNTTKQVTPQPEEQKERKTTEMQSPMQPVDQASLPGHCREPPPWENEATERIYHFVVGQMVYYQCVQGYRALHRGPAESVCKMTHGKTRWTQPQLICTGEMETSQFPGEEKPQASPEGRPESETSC
The assay is described as follows: SPR, Biacore T200; human CD25 immobilized on CM5 chip. As to the method: The relative affinities of VP001, VP002, VP007 and VP008 for recombinant human CD3de (Delta epsilon fusion) and recombinant human CD25 were assessed by SPR on a Biacore T200 (GE Healthcare).
(In general: In SPR one partner is held on a chip, and binding of the other changes the refractive index at the surface.)

B1: VP007 (Basiliximab with V-IGG4-B) (antibody, human IgG4 S228P, kappa, F234A L235A, V domains shown)
VH: QVQLQQSGTVLARPGASVKMSCKASGYSFTRYWMHWIKQRPGQGLEWIGAIYPGNSDTSYNQKFEGKAKLTAVTSASTAYMELSSLTHEDSAVYYCSRDYGYYFDFWGQGTTLTVSS
VL: QIVSTQSPAIMSASPGEKVTMTCSASSSRSYMQWYQQKPGTSPKRWIYDTSKLASGVPARFSGSGSGTSYSLTISSMEAEDAATYYCHQRSSYTFGGGTKLEIKR
notes: 4 chain IgG format (chVIT-101), IgG4 with S228P, F234A, L235A, K322A, F405L, R409K; also called chimeric Basiliximab; chVIT-101
For orientation: Kd means the concentration at which binding is half-saturated. Regarding B1, the dissociation constant (Kd) is 0.8 nM.
